From paper PMC11272584 (Nature Metabolism, 2024)
Where a chain is given by its changes, count along the chain named.

How the values were obtained:
GIPR V399M = target: T1, GIPR V399M (Homo sapiens, UniProt P48546, V399M); experiment: cAMP accumulation; type: cell-based
T1 construct: host or cells: HEK293

GIPR T25R [1] = target: T2, GIPR T25R (Homo sapiens, UniProt P48546, T25R); settings: GIPR T25R (ECD), mean, n = 5, duplicate
T2 sequence (P48546 22-466 T25R): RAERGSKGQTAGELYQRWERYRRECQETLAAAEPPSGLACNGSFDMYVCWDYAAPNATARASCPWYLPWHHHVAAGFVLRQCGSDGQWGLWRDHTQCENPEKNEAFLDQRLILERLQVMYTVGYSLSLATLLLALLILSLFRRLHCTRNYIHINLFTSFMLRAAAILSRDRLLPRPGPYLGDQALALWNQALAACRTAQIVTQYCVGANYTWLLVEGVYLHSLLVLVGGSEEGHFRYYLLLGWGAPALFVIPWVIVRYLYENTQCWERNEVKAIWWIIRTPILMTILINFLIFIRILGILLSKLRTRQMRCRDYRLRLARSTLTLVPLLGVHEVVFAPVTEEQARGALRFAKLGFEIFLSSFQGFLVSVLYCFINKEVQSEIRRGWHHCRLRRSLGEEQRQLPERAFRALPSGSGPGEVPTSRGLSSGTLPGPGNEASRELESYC

GIPR R38L = target: T3, GIPR R38L (Homo sapiens, UniProt P48546, R38L); settings: GIPR R38L (ECD), mean, n = 5, duplicate
T3 sequence (P48546 22-466 R38L): T2 sequence (P48546 22-466 T25R) with R4T, R17L

GIPR M67R = target: T4, GIPR M67R (Homo sapiens, UniProt P48546, M67R); settings: GIPR M67R (ECD), mean, n = 6, duplicate
T4 sequence (P48546 22-466 M67R): T2 sequence (P48546 22-466 T25R) with R4T, M46R

GIPR T116R = target: T5, GIPR T116R (Homo sapiens, UniProt P48546, T116R); settings: GIPR T116R (ECD), mean, n = 5, duplicate
T5 sequence (P48546 22-466 T116R): T2 sequence (P48546 22-466 T25R) with R4T, T95R

GIPR Y73H = target: T6, GIPR Y73H (Homo sapiens, UniProt P48546, Y73H); experiment: cAMP accumulation; type: cell-based; set-up: host or cells: HEK293
T6 sequence (P48546 22-466 Y73H): T2 sequence (P48546 22-466 T25R) with R4T, Y52H

GIPR T25R [2] = target: T2, GIPR T25R; experiment: Homologous competition binding; set-up: host or cells: HEK293

glucose-dependent insulinotropic polypeptide [GIP]
cAMP (Emax) (GIPR V399M; HEK293, GIP(1–42) 1 pM–100 nM, 30 min 37 °C, mean of n = 3): 147 % of WT GIPR activity
logEC50 (cAMP) (GIPR V399M; HEK293, Hill slope 1.0, mean of n = 3): -9.3
logEC50 (Arrestin) (GIPR T25R [1]; Hill slope 1.0): -9.3
Arrestin (Emax) (GIPR T25R [1]; normalized to WT GIPR): 19
logEC50 (Arrestin) (GIPR R38L; Hill slope 1.0): -9.0
Arrestin (Emax) (GIPR R38L; normalized to WT GIPR): 82
logEC50 (Arrestin) (GIPR M67R; Hill slope 1.0): -8.2
Arrestin (Emax) (GIPR M67R; normalized to WT GIPR): 145
logEC50 (Arrestin) (GIPR T116R; Hill slope 1.0): -8.7
Arrestin (Emax) (GIPR T116R; normalized to WT GIPR): 62
cAMP (Emax) (GIPR Y73H; HEK293, GIP(1–42) 1 pM–100 nM, 30 min 37 °C, mean of n = 6): 15 % of WT GIPR activity
logEC50 (cAMP) (GIPR Y73H; HEK293, Hill slope 1.0, mean of n = 6): -10.9
Bmax (GIPR T25R [2]): 25%
